The list shows a part of the results.

In the assay the test system is A. baumannii ATCC 17978. Nature of the assay: relative growth (fraction of control); higher = less inhibition. As to conditions: 50 µM.
`C=CCC[C@H](Cc1ccc(F)cc1)C(=O)OC[C@@H](NC(=O)[C@@H](CC=C)CC(=O)N[C@@H](CO)Cc1ccccc1)C(C)(C)C` registered a relative growth of 0.895.

The compound `O=C(CCCCCC(=O)N/N=C/[C@H](O)[C@@H](O)[C@@H](O)[C@H](O)CO)NO` showed a relative growth of 1.02.

Regarding `NC1=N[C@H]2CS(=O)(=O)C[C@@H]2S1`, the relative growth was found to be 0.982.

`COCC#Cc1ccc2c(c1)O[C@H](CN(C)C(=O)CN(C)C)[C@H](C)CN([C@H](C)CO)S2(=O)=O`: the relative growth was determined as 0.922.

As for `C=CCC[C@@H](Cc1ccc(F)cc1)C(=O)OC[C@@H](NC(=O)[C@@H](CC=C)CC(=O)N[C@H](CO)Cc1ccccc1)C(C)(C)C`, the relative growth stood at 0.775. Then `CC(C)=CCCC1(C)C=Cc2c(O)c3c(c(CC=C(C)C)c2O1)OC12C(=CCCC1C(C)(C)O[C@@]2(C/C=C(\C)C(=O)O)C(=O)O)C3=O` (stereo partly specified), with 1.12; and `CC/C=C(/C(=O)N[C@@H]1C(=O)N2C(C(=O)OCOC(=O)C(C)(C)C)=C(COC(N)=O)CS[C@H]12)c1csc(N)n1.Cl`, with 0.923. With `Cc1noc(C)c1-c1ccc(N)cc1`, the relative growth was 1.12. Then `Nc1nc(N)c2nc(-c3ccccc3)c(N)nc2n1`, with 1.04; and `Cn1c(=O)c(=O)n(C)c2cc(S(=O)(=O)CCC(=O)NCc3ccccc3)ccc21`, with 1.09; and `Cc1ccccc1S(=O)(=O)N1C[C@H](O)COC[C@H]2O[C@H](CC(=O)NCCc3ccccc3)CC[C@@H]21`, with 0.869. Regarding `CCC(=O)O[C@@H](O[P@](=O)(CCCCc1ccccc1)CC(=O)N1C[C@H](C2CCCCC2)C[C@H]1C(=O)[O-])C(C)C.[Na+]`, the relative growth stood at 1.12. On to `C[C@H]1CC2C([C@@H](O)C[C@@]3(C)C2CC[C@]3(O)C(=O)CO)[C@@]2(C)C=CC(=O)C=C12` (stereo partly specified), for which the relative growth was 1.

Turning to `COc1cccc(O)c1O`, the relative growth was found to be 0.941. As for `NCC[C@@H]1CC[C@H](NC(=O)Nc2ccc(F)cc2)[C@H](CO)O1`, the relative growth worked out at 1.06. Then `O=C(C[C@@H]1CC[C@H]2[C@@H](COC[C@@H](O)CN2S(=O)(=O)c2ccc(Cl)cc2)O1)NCCN1CCCCC1`, with 0.9; and `C[C@H]1[C@H](OC(=O)CCC(=O)O)O[C@@H]2O[C@]3(C)CC[C@H]4[C@H](C)CC[C@@H]1[C@@]24OO3`, with 0.829; and `C[C@H](CO)N1C[C@H](C)[C@@H](CN(C)C(=O)C2CC2)Oc2cc(-c3ccc(C(=O)N(C)C)cc3)ccc2S1(=O)=O`, with 0.901. Take `CN1CCN(C(=O)C[C@H]2C=C[C@H](NC(=O)Cc3ccccn3)[C@H](CO)O2)CC1`: the relative growth is 1.15. Then `COC(=O)c1c(N)c(C#N)c2n1CCC2`, with 0.893. Then `CN(C)CCCNC(=O)C[C@@H]1CC[C@H](NS(=O)(=O)c2ccccc2)[C@@H](CO)O1`, with 0.987; and `CSc1cccc(NC(=O)/C=C/c2ccc(C(C)C)cc2)c1`, with 1.22.

Compound `COc1ccc([C@H]([C@H](Cc2ccccc2)OC(C)=O)N(C/C=C\[C@@H](O)c2ccccc2)[C@@H](Cc2ccccc2)C(OC)OC)cc1` gave a relative growth of 1.22.

Take `CN1CCN(C(=O)C[C@H]2CC[C@@H]3[C@H](COC[C@H](O)CN3C(=O)Nc3cc(Cl)cc(Cl)c3)O2)CC1`: the relative growth worked out at 1. In turn, `O=C(C[C@H]1C[C@H]2c3cc(NC(=O)c4ccc5c(c4)OCO5)ccc3O[C@H]2[C@H](CO)O1)NCCc1ccccc1` had a relative growth of 0.891.

The compound `COCCOC(=O)N1C(=O)[C@@]2(c3cc(C#CCNC(N)=O)ccc31)[C@H](C(N)=O)[C@H]1C(=O)O[C@H](c3ccccc3)[C@H](c3ccccc3)N1[C@@H]2c1ccccc1OCCO` gave a relative growth of 0.959.

`Cc1ccc(S(=O)(=O)NCC[C@@H]2CC[C@@H](NS(=O)(=O)c3ccccc3Cl)[C@H](CO)O2)cc1`: the relative growth was found to be 1.11. Compound `Cn1nnc2c(C(N)=O)ncn2c1=O` registered a relative growth of 0.937. With `Cn1cnc(S(=O)(=O)N[C@H]2CC[C@H](CC(=O)NCC3CC3)O[C@@H]2CO)c1`, the relative growth is 0.815. The compound `COc1ccc(S(=O)(=O)N(CC(=O)O)c2ccc(N(CC(=O)O)S(=O)(=O)c3ccc(OC)cc3)c3ccccc23)cc1` returned a relative growth of 1.13.

As for `COc1ccccc1C#Cc1cnc2c(c1)C(=O)N([C@H](C)CO)C[C@@H](C)[C@@H](CN(C)C(=O)CC1CC1)O2`, the relative growth was 0.789.

`Cn1cnc(CCNC(=O)C[C@H]2CC[C@@H]3[C@H](COC[C@@H](O)CN3C(=O)C3CC3)O2)c1`: the relative growth was determined as 0.857. As for `COc1ccc(S(=O)(=O)N[C@@H]2CC[C@H](CC(=O)N3CCN(c4ccccc4)CC3)O[C@H]2CO)cc1`, the relative growth was 1. Then `CN1CCN(C(=O)C[C@H]2CC[C@@H]3[C@H](COC[C@H](O)CN3C(=O)C3CCCC3)O2)CC1`, with 0.929. Regarding `CC(C)NCC(O)COc1cccc2[nH]ccc12` (stereo unspecified), the relative growth was found to be 1.06. Then `COC[C@@H]1CNN1C(=O)c1cc(C)oc1C`, with 1.15; and `C/C=C/c1cnc2c(c1)C(=O)N([C@H](C)CO)C[C@@H](C)[C@H](CN(C)S(=O)(=O)c1ccc(OC)cc1)O2`, with 0.851. In turn, `CCOc1ccc(/C=C/C(=O)Sc2ccc(Cl)cc2)cc1` had a relative growth of 1.47.

The compound `COc1cccc(NC(=O)N2C[C@H](O)COC[C@@H]3O[C@H](CC(=O)NCCCN4CCOCC4)CC[C@H]32)c1` displayed a relative growth of 1.15.

For the compound `COc1cccc(S(=O)(=O)N[C@@H]2CC[C@@H](CC(=O)NC3CCC3)O[C@H]2CO)c1`, the relative growth is 1.01. Then `NC(=O)c1ccc(CN2CCOCC2)cc1`, with 1.05.

Compound `CC(C)CNc1nc(=O)cn[nH]1` showed a relative growth of 0.987. In turn, `CCOC(=O)CCn1cc(F)c(=O)[nH]c1=O` returned a relative growth of 0.772. Then `Cn1cnc(S(=O)(=O)N[C@H]2CC[C@@H](CC(=O)NCC3CC3)O[C@H]2CO)c1`, with 0.907.

Regarding `CC1=C(/C=C/C(C)=C/C=C/C(C)=C/C=C/C=C(C)/C=C/C=C(C)/C=C/C(=O)[C@]2(C)C[C@@H](O)CC2(C)C)C(C)(C)C[C@H](O)C1`, the relative growth was 1.06. Then `O=C(O)c1cc(O)ccc1O`, with 1.09.

As for `O=C(C[C@H]1CC[C@H]2[C@@H](COC[C@H](O)CN2C(=O)c2ccccc2)O1)NCCCN1CCOCC1`, the relative growth was determined as 1.19.

Compound `CC1(O)CCC(C(C)(C)O)CC1.O` (stereo unspecified) returned a relative growth of 1.37. Then `CCCCCCC#C[Si](O[C@H](c1ccccc1)c1cn([C@H](C)c2ccccc2)nn1)(C(C)C)C(C)C`, with 0.687. `COc1cc(C)c(C(=O)Oc2cc(C)c(C(=O)O)c(O)c2)c(O)c1` came in with a relative growth of 1.01.

Compound `O=C1O[C@@H](c2ccccc2)[C@@H](c2ccccc2)N2[C@@H](c3ccccc3OCCO)[C@]3(C(=O)Nc4ccc(C#CC5=CCCCC5)cc43)[C@@H](C(=O)N3CCCCCCC3)[C@H]12` showed a relative growth of 0.989.

The values above are taken from published antibiotic growth screens (doi:10.1038/s41589-023-01349-8).
